Ab-95 light chain CDR variants: yeast mating affinities

Values reported by Engelhart et al. 2022, doi:10.1038/s41597-022-01779-4 (FLAb copy).

Target: peptide PDVDLGDISGINAS, taken from heptad repeat 2 (HR2) of SARS-CoV-2 spike.

Parent scFv Ab-95: VH joined to VL by a (GGGGS)3 linker. Changes lie in the light chain CDRs alone.
VH: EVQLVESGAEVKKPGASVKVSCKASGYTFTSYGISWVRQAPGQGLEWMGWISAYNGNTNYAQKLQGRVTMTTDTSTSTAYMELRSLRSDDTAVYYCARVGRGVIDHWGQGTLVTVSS
VL: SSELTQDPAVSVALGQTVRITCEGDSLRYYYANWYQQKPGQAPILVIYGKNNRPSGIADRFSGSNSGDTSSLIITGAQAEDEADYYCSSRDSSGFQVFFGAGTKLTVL

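The parent was found by panning a naive human phage display library on the peptide. In library AAYL52, one, two or three CDR residues were substituted; doubles and triples were drawn at random. In AlphaSeq, yeast of one mating type display the scFv and yeast of the other type display the target. The frequency of each diploid, read from paired DNA barcodes, reflects how well the two displayed proteins bind. Read counts were normalised to the haploid input and turned into Kd by a linear fit to BCL2-family pairs of known affinity, for each replicate. Each pool was mated in three replicate cultures.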

Variants are written as CDR1, CDR2 and CDR3 of the light chain (limits as in the source). Parent: EGDSLRYYYAN, GKNNRPS, SSRDSSGFQVF.
The read-out is the apparent dissociation constant on a log10 scale (nM): the lower, the stronger.
Averages over replicates are reported, and they cover detected replicates only.
Where no diploid with the target was found in that replicate, the entry reads "ND": below detection, most likely a poor binder, though not proof of it.
Nonspecific signal, from three strains lacking the peptide, appeared in 28% of pairings of library AAYL52, centred on 3.91 (5% of these signals below 2.90); values are not corrected for it. For each scFv, signals with the empty controls are counted beside the result, with their mean in brackets.

| # | CDR-L1 | CDR-L2 | CDR-L3 | log10 Kd (nM) by replicate | mean log10 Kd (nM) | signal with controls |
|---|---|---|---|---|---|---|
| 1 | FGDSLRYYYAN | GKHNRPS | SSRDSSGNQVF | 2.98 / ND / ND | 2.98 | 1 of 9 (4.13) |
| 2 | EGDQLRYYYAN | GLNNRPS | SSRDSSGFQVS | 3.50 / 5.19 / 3.53 | 4.07 | 3 of 9 (3.99) |
| 3 | EGDAFRYYYTN | GKNNRPS | SSRDSSGFQVF | 2.77 / 2.45 / 2.24 | 2.49 | 6 of 9 (3.96) |
| 4 | EGDSLRYYYAR | GKNNRPS | SSRDSLGFQVF | 4.27 / 3.19 / 3.63 | 3.70 | 1 of 9 (5.69) |
| 5 | EGESLRYYYMN | GKNNRPS | SMRDSSGFQVF | ND / 4.05 / 3.84 | 3.94 | 3 of 9 (4.26) |
| 6 | EGDSLRYYYAN | GKNNCFS | SSRDSSGFHVF | ND / ND / 2.96 | 2.96 | 6 of 9 (3.58) |
| 7 | EGDSLRYQQEN | GKNNRPS | SSRDSSGFQVF | 2.24 / 2.62 / 2.80 | 2.55 | 2 of 9 (3.52) |
| 8 | ENDSLRYTYAN | GKNNRPS | SSRDSSGMQVF | 3.14 / 3.21 / ND | 3.18 | 2 of 9 (3.50) |
| 9 | EGDSLRYYYAN | GKNCRPS | SSRDSSGFSVF | 3.55 / 3.64 / 3.54 | 3.58 | 3 of 9 (4.46) |
| 10 | EGDSLDYYYAN | GKNNRPS | SSRDSSIFQVF | 3.68 / 3.39 / 3.44 | 3.50 | 2 of 9 (4.05) |
| 11 | MGDSLRYYYAN | GKNNRPS | SWRDSAGFQVF | 2.65 / 2.79 / 2.66 | 2.70 | 3 of 9 (3.82) |
| 12 | EECSLRYYNAN | GKNNRPS | SSRDSSGFQVF | 3.29 / 3.42 / ND | 3.36 | 1 of 9 (3.73) |
| 13 | EIDSLRYYYAN | GKNNRPS | SSRAWSGFQVF | 3.06 / ND / ND | 3.06 | 2 of 9 (4.39) |
| 14 | EGDSRRYYYEN | LKNNRPS | SSRDSSGFQVF | ND / ND / ND | ND | 1 of 9 (3.29) |
| 15 | EGDSLRYYPAN | CKNNRPS | SSRDSSGFQVF | ND / 4.36 / ND | 4.36 | 2 of 9 (3.78) |
| 16 | IGDSWRYYYAN | GKNNRPS | SSRDSSGFQPF | ND / 5.58 / 3.97 | 4.78 | 1 of 9 (5.06) |
| 17 | KGDSLRYKYAN | GKNNRPR | SSRDSSGFQVF | 3.08 / 3.24 / 3.16 | 3.16 | 1 of 9 (4.80) |
| 18 | EGDSLRYKYAN | GKNNRPS | SSRDSSGFWVF | 1.40 / 1.19 / 0.92 | 1.17 | 1 of 9 (4.44) |
| 19 | ENDSLRRYYAN | GKNNRPS | ISRDSSGFQVF | 3.85 / ND / ND | 3.85 | 1 of 9 (2.68) |
| 20 | EGDWLRYYYAN | GKNNRPS | SSRDSCGFQVS | 4.16 / 5.30 / 3.62 | 4.36 | 6 of 9 (4.31) |
| 21 | EGDSLRYYYAG | GKNNRPS | SSRDSSGLIVF | ND / ND / ND | ND | 2 of 9 (3.79) |
| 22 | EGDSLRGYYLN | GKNNRPS | SSRPSSGFQVF | 3.84 / ND / ND | 3.84 | 2 of 9 (3.47) |
| 23 | EGDSKRYYYAN | GKNNRYS | SSRDSSGFQVA | 2.13 / 2.66 / 2.56 | 2.45 | 1 of 9 (3.50) |
| 24 | EGDSLRYYYRN | GKNNRPS | WSWDSSGFQVF | 4.70 / 5.32 / ND | 5.01 | 5 of 9 (3.79) |
| 25 | EGDSLRYYYAN | GKNNTPS | SWRDSSGKQVF | ND / 4.22 / ND | 4.22 | 1 of 9 (3.02) |
| 26 | EGISLRYYYAN | GKNNRPS | SSRDSSGKQGF | 1.66 / 1.81 / 1.64 | 1.70 | 1 of 9 (4.30) |
| 27 | EGDSLRYYYAN | GVNNRKS | NSRDSSGFQVF | 4.31 / 3.87 / 2.23 | 3.47 | 0 of 9 |
| 28 | EGDSLRYYYVN | GKNNRPS | SSRDSSDFQVI | 3.01 / 2.59 / 1.78 | 2.46 | 3 of 9 (3.72) |
| 29 | EGDSLRKYMAN | GKNNRPS | SSRDSSGFQVF | 1.89 / 2.08 / 1.60 | 1.86 | 1 of 9 (4.31) |
| 30 | EGDSLRYYYDN | GKNNRPS | SSRDESGFQVF | ND / ND / ND | ND | 0 of 9 |
| 31 | EGDSLRYYYAN | GKNVRPS | SSRDSSGFQVF | 2.34 / 2.78 / 2.46 | 2.53 | 1 of 9 (4.27) |
| 32 | EGDSLRYYGAN | GKNNRWS | SSRISSGFQVF | 2.95 / 2.48 / 2.62 | 2.68 | 4 of 9 (4.38) |
| 33 | EPDRLRYKYAN | GKNNRPS | SSRDSSGFQVF | 4.57 / 3.57 / ND | 4.07 | 4 of 9 (4.07) |
| 34 | EWDSLRYAYAN | GKNNRPS | SSRHSSGFQVF | 2.49 / 2.60 / 2.32 | 2.47 | 2 of 9 (3.89) |
| 35 | EGDSLKYYYAE | GKNNRPS | SSCDSSGFQVF | 4.49 / 6.06 / ND | 5.28 | 2 of 9 (4.70) |
| 36 | EGDSLRYMYAH | GKRNRPS | SSRDSSGFQVF | 4.09 / 4.86 / ND | 4.47 | 3 of 9 (3.76) |
| 37 | EGDELRYYYAN | GKNNRPS | SINDSSGFQVF | ND / ND / 3.95 | 3.95 | 4 of 9 (3.50) |

Top 3 of the variants detected in all replicates, tightest first:

CDR-L1	CDR-L2	CDR-L3	log10 Kd (nM) by replicate	mean log10 Kd (nM)	signal with controls
EGDSLRYKYAN	GKNNRPS	SSRDSSGFWVF	1.40 / 1.19 / 0.92	1.17	1 of 9 (4.44)
EGISLRYYYAN	GKNNRPS	SSRDSSGKQGF	1.66 / 1.81 / 1.64	1.70	1 of 9 (4.30)
EGDSLRKYMAN	GKNNRPS	SSRDSSGFQVF	1.89 / 2.08 / 1.60	1.86	1 of 9 (4.31)